# From US8298782B2, “Reversible MHC multimer staining for functional purification of antigen-specific T cells” (priority 2000, dated 2012)
# Entries after “also recorded” stand apart in the source; their conditions may differ.
# System: T cells
# Test: d-biotin toxicity / T cell function
# Format: cell-based
# Conditions: tested up to a concentration of 50 mM; listed as d-biotin
smiles,measurement,value
O=C(O)CCCC[C@@H]1SC[C@@H]2NC(=O)N[C@@H]21 [biotin],toxicity or changes of T cell function,no evidence for toxicity or changes of T cell function; also recorded: could not find evidence for toxicity or changes of T cell function
